Experiment [1] relates to pERK in H358 cells. In words: pERK inhibition in H358 cells. The note with it: read-out: Cellular pERK inhibition, 4 hours treatment. As to the method: H358 cells (5500 cells) derived from a human lung cancer were plated in a 96 well plate in media (100 uL, RPMI with 10% FBS). After 24 hours, cells were treated for 4 hours with compound or DMSO. Cells were washed twice with room temperature TBS (200 uL) and fixed for 20 minutes with 4% paraformaldehyde diluted with TBS (150 uL). Cells were washed four times for five minutes with 0.1% TritonX/TBS (150 uL) to permeabilize the membrane. Cells were incubated with TBS blocking buffer (100 uL) at room temperature for 60 minutes. Primary antibody (Phospho-p44/42 MAPK (Erk1/2) (Thr202/Tyr204) (D13.14.4E) XP® Rabbit mAb #4370, Cell Signaling Technology; 1:200) was added, and the cells were incubated overnight at 4 C. The cells were washed four times for five minutes with 0.1% Tween 20/TBS (150 uL). Secondary antibody (IRDye® 800CW Goat-Anti-Rabbit IgG, Li-Cor Biosciences; 1:1000) and DRAQ5™ (Invitrogen; 1:2000) was added, and the cells were incubated for 1 hour at room temperature. The cells were washed four times for five minutes with 0.1% Tween 20/TBS (150 uL) and scanned using the LICOR (700 and 800 nm).

By UniProt entry, the sequences of proteins in these tests, tags left out.
UniProt P62937, whole entry: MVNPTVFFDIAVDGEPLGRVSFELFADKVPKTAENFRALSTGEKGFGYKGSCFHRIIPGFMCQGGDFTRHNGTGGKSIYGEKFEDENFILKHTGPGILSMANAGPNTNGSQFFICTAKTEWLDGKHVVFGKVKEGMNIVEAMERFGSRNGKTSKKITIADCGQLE

Experiment [2] deals with cyclophilin A (CYPA) (Homo sapiens, UniProt P62937). In words: CYPA-compound binary complex formation by SPR. The settings on record: read-out: CYPA Binding Affinity. The method, then: In order to determine the affinity of compounds of the invention for cyclophilin A (CYPA), we employed surface plasmon resonance binding analysis using the following reagents, instruments and protocol as supplied by the instrument manufacturer.
Reagents and Instrument • 1. Instrument: Biacore S200 (GE Healthcare Life Sciences) • 2. Running buffer: 1×HBS-P+ (1×HBS supplemented with 0.05% Tween20), pH7.4, and 2% DMSO. • 3. Ligand: CypA-Avi • 4. Analyte: Serial dilution of WDB compounds from 50 μM to 0 μM, 2-fold dilution, 10 points (10 mM stock concentration). • 5. Sensor kit: Biotin CAPture Kit (BR28-9202-34, GE Healthcare Life Sciences) • 6. Regeneration buffer: 1 volume of 1 M NaOH and 3 volumes of 8 M guanidine hydrochloride (supplied with CAPture Kit, BR28-9202-34, GE Healthcare Life Sciences)
Experimental Procedure • 1. Capture of CAPreagent: 2 μl/min for 60 seconds. • 2. Immobilization of ligand CypA: Use Fc1 as the reference cell; immobilize CypA at 4 μg/ml using 5 μl/min flowrate on Fc2 (60s), Fc3 (80s) and Fc4 (80s), respectively. • 3. Binding of analytes: Inject WDB compound dilutions sequentially at 50 μl/min for association of 60 seconds. And then let it dissociates in buffer at 50 μl/min for 60 seconds. • 4. Regeneration: 2 injections of regeneration buffer at 30 μl/min for 60 seconds to regenerate the chip surface. • 5. […]
On the technique in general: In SPR one partner is held on a chip, and binding of the other changes the refractive index at the surface.

The record followed here is patent publication US20240139185A1, “COMPOUNDS THAT PARTICIPATE IN COOPERATIVE BINDING AND USES THEREOF” (Revolution Medicines, Inc., priority 2018, published 2024).

As to `C=CC(=O)N1CC[C@H](C(=O)N(C)[C@H](C(=O)N[C@H]2Cc3cc(O)cc(c3)-c3ccc4c(c3)N(CC(C)(C)COC(=O)[C@@H]3CCCN(N3)C2=O)CC4(C)C#Cc2cccnc2)C(C)C)C1` (single isomer, unassigned), in experiment [1], the IC50 was over 10 µM.
For `CC(C)[C@@H](C(=O)N[C@H]1Cc2cc(O)cc(c2)-c2ccc3c(C(C)(C)C#N)cn(c3c2)CC(C)(C)COC(=O)[C@@H]2CCCN(N2)C1=O)N1CCCC2(CCN(C(=O)CCl)C2)C1=O` (single isomer, unassigned), the Kd in experiment [2] was under 5 µM. For the same compound, the IC50 in experiment [1] is under 1 µM.
Regarding `CC(C)[C@@H](C(=O)N[C@H]1Cc2cc(O)cc(c2)-c2ccc3c(C(C)(C)C#N)cn(c3c2)CC(C)(C)COC(=O)[C@@H]2CCCN(N2)C1=O)N1CCC2(CCCN(C(=O)CCl)C2)C1=O` (single isomer, unassigned), the IC50 in experiment [1] is over 10 µM.
On the same count and under the same terms, for `C=CC(=O)N1CC[C@H](C(=O)N(C)[C@H](C(=O)N[C@H]2Cc3cc(O)cc(c3)-c3ccc4c(c3)N(CC(C)(C)COC(=O)[C@@H]3CCCN(N3)C2=O)CC4(C)COC)C(C)C)C1` (single isomer, unassigned) the value was 1 to 10 µM.
